Source: IntAct's records for PubMed 31515488

B1: Zinc finger protein SNAI1 (Homo sapiens), O95863 (parent)
chain: MPRSFLVRKPSDPNRKPNYSELQDSNPEFTFQQPYDQAHLLAAIPPPEILNPTASLPMLIWDSVLAPQAQPIAWASLRLQESPRVAELTSLSDEDSGKGSQPPSPPSPAPSSFSSTSVSSLEAEAYAAFPGLGQVPKQLAQLSEAKDLQARKAFNCKYCNKEYLSLGALKMHIRSHTLPCVCGTCGKAFSRPWLLQGHVRTHTGEKPFSCPHCSRAFADRSNLRAHLQTHSDVKKYQCQACARTFSRMSLLHKHQESGCSGCPR
B2: PHD finger protein 21A (Homo sapiens), Q96BD5 (parent)
chain: MELQTLQEALKVEIQVHQKLVAQMKQDPQNADLKKQLHELQAKITALSEKQKRVVEQLRKNLIVKQEQPDKFQIQPLPQSENKLQTAQQQPLQQLQQQQQYHHHHAQQSAAASPNLTASQKTVTTASMITTKTLPLVLKAATATMPASVVGQRPTIAMVTAINSQKAVLSTDVQNTPVNLQTSSKVTGPGAEAVQIVAKNTVTLVQATPPQPIKVPQFIPPPRLTPRPNFLPQVRPKPVAQNNIPIAPAPPPMLAAPQLIQRPVMLTKFTPTTLPTSQNSIHPVRVVNGQTATIAKTFPMAQLTSIVIATPGTRLAGPQTVQLSKPSLEKQTVKSHTETDEKQTESRTITPPAAPKPKREENPQKLAFMVSLGLVTHDHLEEIQSKRQERKRRTTANPVYSGAVFEPERKKSAVTYLNSTMHPGTRKRGRPPKYNAVLGFGALTPTSPQSSHPDSPENEKTETTFTFPAPVQPVSLPSPTSTDGDIHEDFCSVCRKSGQLLMCDTCSRVYHLDCLDPPLKTIPKGMWICPRCQDQMLKKEEAIPWPGTLAIVHSYIAYKAAKEEEKQKLLKWSSDLKQEREQLEQKVKQLSNSISKCMEMKNTILARQKEMHSSLEKVKQLIRLIHGIDLSKPVDSEATVGAISNGPDCTPPANAATSTPAPSPSSQSCTANCNQGEETK
partner: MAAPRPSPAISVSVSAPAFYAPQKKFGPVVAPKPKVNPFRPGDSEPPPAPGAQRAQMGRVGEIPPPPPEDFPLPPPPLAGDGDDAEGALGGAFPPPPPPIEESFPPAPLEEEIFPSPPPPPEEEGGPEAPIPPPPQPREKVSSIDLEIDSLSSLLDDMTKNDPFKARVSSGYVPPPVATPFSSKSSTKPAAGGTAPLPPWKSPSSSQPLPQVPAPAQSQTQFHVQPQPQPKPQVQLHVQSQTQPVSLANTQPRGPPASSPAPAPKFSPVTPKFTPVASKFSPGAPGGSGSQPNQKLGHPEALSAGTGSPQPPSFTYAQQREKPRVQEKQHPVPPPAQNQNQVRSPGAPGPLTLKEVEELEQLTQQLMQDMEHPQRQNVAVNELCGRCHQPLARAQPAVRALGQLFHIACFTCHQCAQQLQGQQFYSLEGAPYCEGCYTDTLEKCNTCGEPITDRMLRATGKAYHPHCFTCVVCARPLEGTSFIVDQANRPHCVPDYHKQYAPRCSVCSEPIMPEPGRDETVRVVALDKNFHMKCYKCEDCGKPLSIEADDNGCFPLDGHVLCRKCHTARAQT
B3: Protein INCA1 (Homo sapiens), Q0VD86 (parent)
chain: MQVQDDGVNLIPFAKCSRVVSRSPPPRLPSQSLRPMPQRYGDVFWKNLNQRPTPTWLEEQHIPPMLRATGCSQLGLYPPEQLPPPEMLWRRKKRRPCLEGMQQQGLGGVPARVRAVTYHLEDLRRRQSIINELKKAQWGSSGAASEPVVLGEEGCGFPSTNEYPDLEEERATYPQEEDRFLTPGRAQLLWSPWSPLDQEEACASRQLHSLASFSTVTARRNPLHNPWGMELAASEE
partner: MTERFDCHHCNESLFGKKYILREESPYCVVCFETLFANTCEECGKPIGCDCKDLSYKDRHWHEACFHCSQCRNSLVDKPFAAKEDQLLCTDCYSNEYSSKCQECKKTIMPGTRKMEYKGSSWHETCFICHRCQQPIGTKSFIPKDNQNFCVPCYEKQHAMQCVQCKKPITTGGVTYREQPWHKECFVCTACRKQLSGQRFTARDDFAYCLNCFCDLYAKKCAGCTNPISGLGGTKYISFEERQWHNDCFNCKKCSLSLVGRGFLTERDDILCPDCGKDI
B4: Zinc finger protein 366 (Homo sapiens), Q8N895 (parent)
chain: MQKEMKMIKDEDVHFDLAVKKTPSFPHCLQPVASRGKAPQRHPFPEALRGPFSQFRYEPPPGDLDGFPGVFEGAGSRKRKSMPTKMPYNHPAEEVTLALHSEENKNHGLPNLPLLFPQPPRPKYDSQMIDLCNVGFQFYRSLEHFGGKPVKQEPIKPSAVWPQPTPTPFLPTPYPYYPKVHPGLMFPFFVPSSSPFPFSRHTFLPKQPPEPLLPRKAEPQESEETKQKVERVDVNVQIDDSYYVDVGGSQKRWQCPTCEKSYTSKYNLVTHILGHSGIKPHACTHCGKLFKQLSHLHTHMLTHQGTRPHKCQVCHKAFTQTSHLKRHMMQHSEVKPHNCRVCGRGFAYPSELKAHEAKHASGRENICVECGLDFPTLAQLKRHLTTHRGPIQYNCSECDKTFQYPSQLQNHMMKHKDIRPYICSECGMEFVQPHHLKQHSLTHKGVKEHKCGICGREFTLLANMKRHVLIHTNIRAYQCHLCYKSFVQKQTLKAHMIVHSDVKPFKCKLCGKEFNRMHNLMGHMHLHSDSKPFKCLYCPSKFTLKGNLTRHMKVKHGVMERGLHSQGLGRGRIALAQTAGVLRSLEQEEPFDLSQKRRAKVPVFQSDGESAQGSHCHEEEEEDNCYEVEPYSPGLAPQSQQLCTPEDLSTKSEHAPEVLEEACKEEKEDASKGEWEKRSKGDLGAEGGQERDCAGRDECLSLRAFQSTRRGPSFSDYLYFKHRDESLKELLERKMEKQAVLLGI
B5: TNFAIP3-interacting protein 1 (Homo sapiens), Q15025 (parent)
chain: MEGRGPYRIYDPGGSVPSGEASAAFERLVKENSRLKEKMQGIKMLGELLEESQMEATRLRQKAEELVKDNELLPPPSPSLGSFDPLAELTGKDSNVTASPTAPACPSDKPAPVQKPPSSGTSSEFEVVTPEEQNSPESSSHANAMALGPLPREDGNLMLHLQRLETTLSVCAEEPDHGQLFTHLGRMALEFNRLASKVHKNEQRTSILQTLCEQLRKENEALKAKLDKGLEQRDQAAERLREENLELKKLLMSNGNKEGASGRPGSPKMEGTGKKAVAGQQQASVTAGKVPEVVALGAAEKKVKMLEQQRSELLEVNKQWDQHFRSMKQQYEQKITELRQKLADLQKQVTDLEAEREQKQRDFDRKLLLAKSKIEMEETDKEQLTAEAKELRQKVKYLQDQLSPLTRQREYQEKEIQRLNKALEEALSIQTPPSSPPTAFGSPEGAGALLRKQELVTQNELLKQQVKIFEEDFQRERSDRERMNEEKEELKKQVEKLQAQVTLSNAQLKAFKDEEKAREALRQQKRKAKASGERYHVEPHPEHLCGAYPYAYPPMPAMVPHHGFEDWSQIRYPPPPMAMEHPPPLPNSRLFHLPEYTWRLPCGGVRNPNQSSQVMDPPTARPTEPESPKNDREGPQ
partner: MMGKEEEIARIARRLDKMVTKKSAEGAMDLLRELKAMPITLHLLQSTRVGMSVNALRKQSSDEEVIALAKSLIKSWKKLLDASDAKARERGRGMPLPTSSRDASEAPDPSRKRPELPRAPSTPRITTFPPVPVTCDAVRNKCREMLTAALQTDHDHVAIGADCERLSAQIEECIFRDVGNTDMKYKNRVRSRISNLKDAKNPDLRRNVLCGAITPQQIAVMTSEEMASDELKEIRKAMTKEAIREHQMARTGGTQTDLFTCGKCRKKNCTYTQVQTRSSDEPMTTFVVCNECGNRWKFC
B6: Protein INCA1 (Homo sapiens), Q0VD86 (parent)
chain: B3 chain
B7: Isoform I of Tumor necrosis factor receptor superfamily member 5 (Homo sapiens), P25942-1 (parent)
chain: MVRLPLQCVLWGCLLTAVHPEPPTACREKQYLINSQCCSLCQPGQKLVSDCTEFTETECLPCGESEFLDTWNRETHCHQHKYCDPNLGLRVQQKGTSETDTICTCEEGWHCTSEACESCVLHRSCSPGFGVKQIATGVSDTICEPCPVGFFSNVSSAFEKCHPWTSCETKDLVVQQAGTNKTDVVCGPQDRLRALVVIPIIFGILFAILLVLVFIKKVAKKPTNKAPHPKQEPQEINFPDDLPGSNTAAPVQETLHGCQPVTQEDGKESRISVQERQ

Variants of: B1
Conditions: with tri23_human TRIM23, P36406
With MPRSFLVRKPSDPNRKPNYSELQDSNPEFTFQQPYDQAHLLAAIPPPEILNPTASLPMLIWDSVLAPQAQPIAWASLRLQESPRVAELTSLSDEDSGKGSQPPSPPSPAPSSFSSTSASSLEAEAYAAFPGLGQVPKQLAQLSEAKDLQARKAFNCKYCNKEYLSLGALKMHIRSHTLPCVCGTCGKAFSRPWLLQGHVRTHTGEKPFSCPHCSRAFADRSNLRAHLQTHSDVKKYQCQACARTFSRMSLLHKHQESGCSGCPR [V118A] the “effect of a mutation on the interaction” value was “with no effect”.

Variants of: B1
Conditions: with trip6_human TRIP6, Q15654
With MPRSFLVRKPSDPNRKPNYSELQDSNPEFTFQQPYDQAHLLAAIPPPEILNPTASLPMLIWDSVLAPQAQPIAWASLRLQESPRVAELTSLSDEDSGKGSQPPSPPSPAPSSFSSTSASSLEAEAYAAFPGLGQVPKQLAQLSEAKDLQARKAFNCKYCNKEYLSLGALKMHIRSHTLPCVCGTCGKAFSRPWLLQGHVRTHTGEKPFSCPHCSRAFADRSNLRAHLQTHSDVKKYQCQACARTFSRMSLLHKHQESGCSGCPR [V118A] the “effect of a mutation on the interaction” value was “with no effect”.

Variants of: B1
Conditions: with k1h1_human KRT31, Q15323
MPRSFLVRKPSDPNRKPNYSELQDSNPEFTFQQPYDQAHLLAAIPPPEILNPTASLPMLIWDSVLAPQAQPIAWASLRLQESPRVAELTSLSDEDSGKGSQPPSPPSPAPSSFSSTSASSLEAEAYAAFPGLGQVPKQLAQLSEAKDLQARKAFNCKYCNKEYLSLGALKMHIRSHTLPCVCGTCGKAFSRPWLLQGHVRTHTGEKPFSCPHCSRAFADRSNLRAHLQTHSDVKKYQCQACARTFSRMSLLHKHQESGCSGCPR [V118A] was tested, and the “effect of a mutation on the interaction” value was “with no effect”.

Variants of: B2
Conditions: with zyx_human ZYX
With R347H the “effect of a mutation on the interaction” value was “with no effect”.

Variants of: B3
Conditions: with fhl2_human FHL2, Q14192
With MQVQDDGVNLIPFAKCSRVVSRSPPPRLPSQSLRPMPQRYGDVFWKNLNQRPTPTWLEEQHIPPMLRATGCSQLGLYPPEQLPPPEMLWRRKKRRPCLEGMQQQGLGGVPARVRAVTYHLEDLRRRQSIINELKKAQWGSSGAASEPVVLGEDGCGFPSTNEYPDLEEERATYPQEEDRFLTPGRAQLLWSPWSPLDQEEACASRQLHSLASFSTVTARRNPLHNPWGMELAASEE [E153D] the “effect of a mutation on the interaction” value was “with no effect”.

Variants of: B4
Conditions: with cep70_human CEP70, Q8NHQ1
E665Q was tested, and the “effect of a mutation on the interaction” value was “with no effect”. In the case of V601M, the “effect of a mutation on the interaction” value is reported as “with no effect”.

Variants of: B4
Conditions: with psa3_human PSMA3, P25788
E665Q was tested, and the “effect of a mutation on the interaction” value was “with no effect”. For V601M, the “effect of a mutation on the interaction” value was “with no effect”.

Variants of: B5
Conditions: with tcea2_human TCEA2, Q15560
For V16M, the “effect of a mutation on the interaction” value was “with no effect”. With G178S the “effect of a mutation on the interaction” value was “with no effect”. In the case of Q214K, the “effect of a mutation on the interaction” value is reported as “with no effect”. In the case of K30T, the “effect of a mutation on the interaction” value is reported as “with no effect”.

Variants of: B6
Conditions: with grb2_human GRB2
With MQVQDDGVNLIPFAKCSRVVSRSPPPRLPSQSLRPMPQRYGDVFWKNLNQRPTPTWLEEQHIPPMLRATGCSQLGLYPPEQLPPPEMLWRRKKRRPCLEGMQQQGLGGVPARVRAVTYHLEDLRRRQSIINELKKAQWGSSGAASEPVVLGEDGCGFPSTNEYPDLEEERATYPQEEDRFLTPGRAQLLWSPWSPLDQEEACASRQLHSLASFSTVTARRNPLHNPWGMELAASEE [E153D] the “effect of a mutation on the interaction” value was “with no effect”.

Variants of: B6
Conditions: with co8a1_human COL8A1, P27658
In the case of MQVQDDGVNLIPFAKCSRVVSRSPPPRLPSQSLRPMPQRYGDVFWKNLNQRPTPTWLEEQHIPPMLRATGCSQLGLYPPEQLPPPEMLWRRKKRRPCLEGMQQQGLGGVPARVRAVTYHLEDLRRRQSIINELKKAQWGSSGAASEPVVLGEDGCGFPSTNEYPDLEEERATYPQEEDRFLTPGRAQLLWSPWSPLDQEEACASRQLHSLASFSTVTARRNPLHNPWGMELAASEE [E153D], the “effect of a mutation on the interaction” value is reported as “with no effect”.

Variants of: B7
Conditions: with traf2_human TRAF2, Q12933
With MVRLPLQCVLWGCLLTAVHPEPPTACREKQYLINSQCCSLCQPGQKLVSDCTEFTETECLPCGESEFLDTWNRETHCHQHKYCDPNLGLRVQQKGTSETDTICTCEEGWHCTSEACESCVLHRSCSPGFGVKQIATGVSDTICEPCPVGFFSNVSSAFEKCHPWTSCETKDLVVQQAGTNKTDVVCGPQDRLRALVVIPIIFGILFAILLVLVFIKKVAKKPTNKAPHPKQEPQEINFPDDLPGSNTAAPVQETLHGCQPVTQEDDKESRISVQERQ [G266D] the “effect of a mutation on the interaction” value was “with no effect”.
